Like-named read-outs stand apart in the source and are kept apart here.
Tests used:
[1] = plasma pharmacokinetics and bioavailability in female minipigs; settings: female minipig, i.v. reference, 648 μg/animal
[2] = intravenous pharmacokinetic reference in Sprague-Dawley rat; settings: API free base i.v., 32 μg/animal (160 μg/kg)
[3] = partition coefficient in the system octanol/water (log P)
[4] = plasma pharmacokinetics, bioavailability and flux in male minipigs
[5] = solubility of API free base in liquid permeation enhancer substances
[6] = study 1, Solution 12A, 52 μg/kg (8.3 μg/animal), dermal
[7] = study 1, Solution 12A, 102 μg/kg (16 μg/animal), dermal
[8] = study 1, Solution 12A, 188 μg/kg (30 μg/animal), dermal
[9] = study 2, PEG 400, 750 μg/mL, 60%, 60 μg/animal, dermal
[10] = study 2, PEG 400, 3000 μg/mL, 60%, 300 μg/animal, dermal
[11] = study 3, PEG 400, 600 μg/mL, 12%, 60 μg/animal, dermal
[12] = study 4, PEG 400 in Finn chamber, 1000 μg/mL, 180 μL, 180 μg/animal
[13] = study 4, SEDDS in Finn chamber, 1000 μg/mL, 180 μL, 180 μg/animal
[14] = male minipig, i.v. reference, 564 μg/animal

Q: With “(1r,4r)-6′-fluoro-N,N-dimethyl-4-phenyl-4′,9′-dihydro-3′H-spiro[cyclohexane-1,1′-pyrano[3,4-b]indol]-4-amine” as the molecule, how does the flux (PEG 400, 750 μg/mL, 60%, 60 μg/animal, size ~12 cm^2) read?
A: 66 ng/cm^2/h

Q: And the “bioavailability of hemicitrate, fold lower compared to the API free base in PEG400” value (PEG400, hairless rats)?
A: approximately 2.5 fold

Q: And the flux (Solution 12A, 52 μg/kg (8.3 μg/animal), size ~12 cm^2)?
A: 28 ng/cm^2/h

Q: What about the flux (Solution 12A, 102 μg/kg (16 μg/animal), size ~12 cm^2, based on load in solution) of the same molecule?
A: 42 ng/cm^2/h

Q: What about the flux (Solution 12A, 188 μg/kg (30 μg/animal), size ~12 cm^2) of the same molecule?
A: 103 ng/cm^2/h

Q: What about the AUC0-t [6] of the same molecule?
A: 4.28 ± 1.09 ng·h/mL

Q: What about the Cmax [6] of the same molecule?
A: 0.240 ± 0.080 ng/mL

Q: What about the tlast [6] of the same molecule?
A: 34 h

Q: What about the “F [T/R] (absolute bioavailability)” value (study 1, Solution 12A, 52 μg/kg (8.3 μg/animal), dermal vs. i.v.) of the same molecule?
A: 99%

Q: What about the AUC0-t [7] of the same molecule?
A: 6.33 ± 2.30 ng·h/mL

Q: What about the tlast [7] of the same molecule?
A: 30 to 34 h

Q: What about the “F [T/R] (absolute bioavailability)” value (study 1, Solution 12A, 102 μg/kg (16 μg/animal), dermal vs. i.v.) of the same molecule?
A: 76%

Q: What about the AUC0-t [8] of the same molecule?
A: 15.5 ± 7.12 ng·h/mL

Q: What about the Cmax [8] of the same molecule?
A: 1.48 ± 1.26 ng/mL

Q: What about the tlast [8] of the same molecule?
A: 30 to 34 h

Q: And the “F [T/R] (absolute bioavailability)” value (study 1, Solution 12A, 188 μg/kg (30 μg/animal), dermal vs. i.v.)?
A: 99%

Q: And the Cmax (study 2, PEG 400 (Solution 12B), 750 μg/mL, 60%, 60 μg/animal, dermal)?
A: 0.47 ± 0.12 ng/mL

Q: What about the AUC0-t [9] of the same molecule?
A: 9.88 ± 1.73 ng·h/mL

Q: And the tlast [9]?
A: 34 to 48.25 h

Q: And the “F [T/R] (absolute bioavailability)” value (study 2, PEG 400, 750 μg/mL, 60%, 60 μg/animal, dermal vs. i.v.)?
A: 32%

Q: What does the source list for `CN(C)[C@]1(c2ccccc2)CC[C@]2(CC1)OCCc1c3cc(F)ccc3[nH]c12`?
A: flux (PEG 400, 600 μg/mL, 12%, 60 μg/animal, size ~12 cm^2): 148 ng/cm^2/h; flux (PEG 400, 3000 μg/mL, 60%, 300 μg/animal, size ~12 cm^2): 852 ng/cm^2/h; flux (PEG 400 in Finn chamber, 1000 μg/mL, 180 μg/animal, size ~3 cm^2): 71 ng/cm^2/h; flux (SEDDS in Finn chamber, 1000 μg/mL, 180 μg/animal, size ~3 cm^2): 87 ng/cm^2/h; AUC0-t [10]: 128 ± 26.8 ng·h/mL; Cmax [10]: 8.51 ± 5.17 ng/mL; tlast [10]: 48.25 h; F [T/R] (absolute bioavailability) (study 2, PEG 400, 3000 μg/mL, 60%, 300 μg/animal, dermal vs. i.v.): 82%; AUC0-t [11]: 22.3 ± 11.8 ng·h/mL; Cmax [11]: 1.88 ± 1.33 ng/mL; tlast [11]: 34 to 51.25 h; F [T/R] (absolute bioavailability) (study 3, PEG 400, 600 μg/mL, 12%, 60 μg/animal, dermal vs. i.v.): 71%; Cmax (study 4, PEG 400 in Finn chamber (~3 cm^2), 1000 μg/mL, 180 μL, 180 μg/animal): 0.208 ± 0.129 ng/mL; F [T/R] (absolute bioavailability) (study 4, PEG 400 in Finn chamber, 1000 μg/mL, 180 μg/animal, vs. i.v.): 2.8%; AUC0-t [12]: 2.66 ± 0.654 ng·h/mL; tlast [12]: 51.25 h; Cmax (study 4, SEDDS in Finn chamber (~3 cm^2), 1000 μg/mL, 180 μL, 180 μg/animal): 0.171 ± 0.020 ng/mL; AUC0-t [13]: 3.26 ± 1.01 ng·h/mL; tlast [13]: 51.25 h; AUC0-t [1]: 11.4 ± 0.82 ng·h/mL; Cmax [1]: 6.97 ± 1.17 ng/mL; tlast [1]: 36 to 48 h; AUC0-t [2]: 16.1 ± 1.91 ng·h/mL; Cmax [2]: 11.7 ± 0.940 ng/mL; tlast [2]: 12 to 24 h; AUC0-t ([2]; listed as reference): 16.1 ± 1.91 (12%) h · ng/mL; Cmax ([2]; listed as reference): 11.7 ± 0.940 (79%) ng/mL; partition coefficient (log P) [3]: 5.3; AUC ([4]; intravenous 40 μg/kg (564 μg/animal) to male pigs): 12.3 ng·h/mL; AUC0-t [4, 14]: 11.9 ± 1.33 ng·h/mL; Cmax [4, 14]: 4.86 ± 1.47 ng/mL; tlast [4, 14]: 36 to 48 h; solubility of API free base ([5]; in 1-Dodecanol): 1300 µg/mL; solubility of API free base ([5]; in Benzyl alcohol): 5300 µg/mL; solubility of API free base ([5]; in Caprylic acid): 1200 µg/mL; solubility of API free base ([5]; in Dibutylene sebacate): 1500 µg/mL; solubility of API free base ([5]; in Diethylene glycol monoethyl ether (Transcutol P)): 6300 µg/mL; solubility of API free base ([5]; in Ethyl oleate): 500 µg/mL; solubility of API free base ([5]; in Glycerol): 700 µg/mL; solubility of API free base ([5]; in Isopropyl myristate): 700 µg/mL; solubility of API free base ([5]; in Isopropyl palmitate): 500 µg/mL; solubility of API free base ([5]; in Laurocapram (Azone ®)): 20000 µg/mL; solubility of API free base ([5]; in Lauryl lactate): 2600 µg/mL; solubility of API free base ([5]; in Levulinic acid): 11700 µg/mL; solubility of API free base ([5]; in Oleyl oleate): 1400 µg/mL; solubility of API free base ([5]; in Polyethylene glycol 400): 3900 µg/mL; solubility of API free base ([5]; in Polysorbate 80): 800 µg/mL; solubility of API free base ([5]; in Propylene glycol monolaurate): 1800 µg/mL; solubility of API free base ([5]; in Triacetine): 600 µg/mL
